System: human platelets
Conditions: 1 μg UC-hMSC mitochondria in 10 μL TTG, TTG-G or TTG-G-G buffer, refrigerated one hour, 37° C.
Experimental: After treatment, the resultant was incubated with shaking at 100 rpm at 37° C. for one hour.

| platelet aggregation induced by mitochondria in glycine or glycine oligomer buffer | SMILES |
| --- | --- |
| no platelet aggregation was observed | NCC(=O)NCC(=O)O [glycine dimer] |
| no platelet aggregation was observed | NCC(=O)NCC(=O)NCC(=O)O [glycine trimer] |
